Measurements reported in patent US10745735B2 (priority 2013, dated 2020).

System: BL21 E. coli cells
Conditions: HPG 50 μg/ml, 30 min to 16 h, Alexa488-azide

## C#CCCC(N)C(=O)O (stereo not shown) [HPG, homopropargylglycine]
  incorporation of methionine analogue into expressed protein: acquire HPG from the media and incorporate the methionine analogue in expressed protein
